Experimental data from patent US8563548B2, “Methylene furanone derivatives and use of said derivatives as a photoprotecting or antioxidant or depigmentation agent in cosmetic or dermatological compositions” (Pierre Fabre Dermo-Cosmetique, priority 2008, dated 2013).

Assay: Antioxidant capacity by trapping the superoxide anion (photochemiluminescence with luminol)
Type: biochemical
Conditions: reference products; sample needed for activity equivalent to 1 μg Trolox
Experimental: The antioxidant capacity of 10 molecules was measured by trapping the superoxide anion: 5d, 9a, 5b, 5a, 5e, 4d, 5f, 5g, 5h, 5j.
The method consists in generating free radicals by a photochemical signal. Oxidation intensity is 1000 times higher than that obtained in normal conditions.
Thus, the superoxide radical (O2—) is generated by a photochemical reaction: L+hv(UV)+O2→L*O2→L^++O2—
Detection is done by chemiluminescence. It enables the evaluation of water-soluble and fat-soluble antioxidant molecules or extracts.
Part of the superoxide anions are quenched by antioxidants. The remaining free radicals are quantified by chemiluminescence. L^++O2^−→N2+AP*^2−→AP^2−+hv (luminescence)
The results are expressed respectively in equivalent quantity of vitamin C or Trolox (6-hydroxy-2,5,7,8-tetramethylchroman-2-carboxylic acid). Sensitivity is on the order of a nanomole.
The analysis of the results depends on two criteria: shape of the curve and numerical value given by the software.
The results will be expressed in μg of sample necessary to obtain an activity equivalent to the activity detected for 1 μg of the standard (ascorbic acid or Trolox).

In the case of “Albumin: reference product in the antioxidant comparison table [reference compound]”, the “μg of sample for 1 μg of Trolox” value was 3069 µg.
